Experimental data reported in ChEMBL document CHEMBL1137531, “Structure-based design and synthesis of (5-arylamino-2H-pyrazol-3-yl)-biphenyl-2',4'-diols as novel and potent human CHK1 inhibitors” (J Med Chem, 2007).

By UniProt entry, the sequences of proteins in these tests, tags left out. Where a name states a change or a piece, a line headed by the entry shows the natural chain unless it says otherwise.
UniProt P23443: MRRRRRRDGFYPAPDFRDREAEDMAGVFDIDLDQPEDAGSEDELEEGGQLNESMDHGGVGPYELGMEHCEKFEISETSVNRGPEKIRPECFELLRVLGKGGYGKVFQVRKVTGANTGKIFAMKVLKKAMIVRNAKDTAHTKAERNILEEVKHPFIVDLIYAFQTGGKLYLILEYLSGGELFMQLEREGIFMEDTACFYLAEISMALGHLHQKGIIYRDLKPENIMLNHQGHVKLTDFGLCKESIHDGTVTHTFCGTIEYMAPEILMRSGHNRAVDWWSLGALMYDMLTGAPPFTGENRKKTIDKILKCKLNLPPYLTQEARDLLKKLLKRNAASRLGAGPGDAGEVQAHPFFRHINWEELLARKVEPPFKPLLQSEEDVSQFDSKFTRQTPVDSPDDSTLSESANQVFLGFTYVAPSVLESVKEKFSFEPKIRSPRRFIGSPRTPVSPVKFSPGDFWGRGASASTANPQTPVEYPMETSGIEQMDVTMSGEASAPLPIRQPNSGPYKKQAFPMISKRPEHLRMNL

Molecular target: Ribosomal protein S6 kinase beta-1 (Homo sapiens, UniProt P23443)
Test: Inhibition of p70S6K

CC(C)NCc1ccc(Nc2cc(-c3ccc(-c4ccc(O)cc4O)cc3)[nH]n2)cc1
IC50: > 30 µM
